# Test results taken from US20110009335A1, “Anticancer Treatments” (priority 2008, published 2011).
# Test system: LOX-IMVI human melanoma xenograft
# Experiment: Aplidine with sorafenib, LOX-IMVI xenograft in athymic nude mice (Example 7)
# Type: in vivo
# Conditions: G4: sorafenib 30 mg/kg/day PO
# Excerpt: Female athymic nude mice (Harlan Sprague Dawley, Madison, Wis.) were utilized for all experiments. Mice were implanted with a tumor fragment when mice were 6-8 weeks of age. Animals were housed in ventilated rack caging with food and water ad libitum. The mice were acclimated for at least 5 days prior to tumor implantation.
# The tumor model used in this study was LOX-IMVI, which is a human melanoma cell line obtained from the Department of Developmental Therapeutics, National Cancer Institute (NCI). Animals were implanted subcutaneously (SC) on the right flank, using a 13 gauge trocar, with 2 mm^3 of tissue tumor fragments of LOX-IMVI, from an in vivo transplantable line passage 1, using sterile Earle's Balanced Salt solution as a wetting agent.
# Tumor measurements were determined as disclosed in Example 1. […]
# The treatment of LOX-IMVI-tumor-bearing mice was initiated on DPI (Day Post Implantation) 11. Body weights were recorded on treatment days and when tumor sizes were measured. […]
# Tumor size measurements were recorded twice weekly from the treatment initiation until the termination of the study.
# Mean, standard deviation and standard error of the mean were determined for tumor volume for all animal groups at all assessments. […]
structure (smiles),measurement,value
CNC(=O)c1cc(Oc2ccc(NC(=O)Nc3ccc(Cl)c(C(F)(F)F)c3)cc2)ccn1 [sorafenib],% T/C on day 11,102.1%
